Experimental data: ChEMBL document CHEMBL5537207, “Discovery and Characterization of Selective, First-in-Class Inhibitors of Citron Kinase” (J Med Chem, 2024)

Sequences of proteins named here, by UniProt entry; tags and fusion partners are left off.
UniProt O14578, whole entry: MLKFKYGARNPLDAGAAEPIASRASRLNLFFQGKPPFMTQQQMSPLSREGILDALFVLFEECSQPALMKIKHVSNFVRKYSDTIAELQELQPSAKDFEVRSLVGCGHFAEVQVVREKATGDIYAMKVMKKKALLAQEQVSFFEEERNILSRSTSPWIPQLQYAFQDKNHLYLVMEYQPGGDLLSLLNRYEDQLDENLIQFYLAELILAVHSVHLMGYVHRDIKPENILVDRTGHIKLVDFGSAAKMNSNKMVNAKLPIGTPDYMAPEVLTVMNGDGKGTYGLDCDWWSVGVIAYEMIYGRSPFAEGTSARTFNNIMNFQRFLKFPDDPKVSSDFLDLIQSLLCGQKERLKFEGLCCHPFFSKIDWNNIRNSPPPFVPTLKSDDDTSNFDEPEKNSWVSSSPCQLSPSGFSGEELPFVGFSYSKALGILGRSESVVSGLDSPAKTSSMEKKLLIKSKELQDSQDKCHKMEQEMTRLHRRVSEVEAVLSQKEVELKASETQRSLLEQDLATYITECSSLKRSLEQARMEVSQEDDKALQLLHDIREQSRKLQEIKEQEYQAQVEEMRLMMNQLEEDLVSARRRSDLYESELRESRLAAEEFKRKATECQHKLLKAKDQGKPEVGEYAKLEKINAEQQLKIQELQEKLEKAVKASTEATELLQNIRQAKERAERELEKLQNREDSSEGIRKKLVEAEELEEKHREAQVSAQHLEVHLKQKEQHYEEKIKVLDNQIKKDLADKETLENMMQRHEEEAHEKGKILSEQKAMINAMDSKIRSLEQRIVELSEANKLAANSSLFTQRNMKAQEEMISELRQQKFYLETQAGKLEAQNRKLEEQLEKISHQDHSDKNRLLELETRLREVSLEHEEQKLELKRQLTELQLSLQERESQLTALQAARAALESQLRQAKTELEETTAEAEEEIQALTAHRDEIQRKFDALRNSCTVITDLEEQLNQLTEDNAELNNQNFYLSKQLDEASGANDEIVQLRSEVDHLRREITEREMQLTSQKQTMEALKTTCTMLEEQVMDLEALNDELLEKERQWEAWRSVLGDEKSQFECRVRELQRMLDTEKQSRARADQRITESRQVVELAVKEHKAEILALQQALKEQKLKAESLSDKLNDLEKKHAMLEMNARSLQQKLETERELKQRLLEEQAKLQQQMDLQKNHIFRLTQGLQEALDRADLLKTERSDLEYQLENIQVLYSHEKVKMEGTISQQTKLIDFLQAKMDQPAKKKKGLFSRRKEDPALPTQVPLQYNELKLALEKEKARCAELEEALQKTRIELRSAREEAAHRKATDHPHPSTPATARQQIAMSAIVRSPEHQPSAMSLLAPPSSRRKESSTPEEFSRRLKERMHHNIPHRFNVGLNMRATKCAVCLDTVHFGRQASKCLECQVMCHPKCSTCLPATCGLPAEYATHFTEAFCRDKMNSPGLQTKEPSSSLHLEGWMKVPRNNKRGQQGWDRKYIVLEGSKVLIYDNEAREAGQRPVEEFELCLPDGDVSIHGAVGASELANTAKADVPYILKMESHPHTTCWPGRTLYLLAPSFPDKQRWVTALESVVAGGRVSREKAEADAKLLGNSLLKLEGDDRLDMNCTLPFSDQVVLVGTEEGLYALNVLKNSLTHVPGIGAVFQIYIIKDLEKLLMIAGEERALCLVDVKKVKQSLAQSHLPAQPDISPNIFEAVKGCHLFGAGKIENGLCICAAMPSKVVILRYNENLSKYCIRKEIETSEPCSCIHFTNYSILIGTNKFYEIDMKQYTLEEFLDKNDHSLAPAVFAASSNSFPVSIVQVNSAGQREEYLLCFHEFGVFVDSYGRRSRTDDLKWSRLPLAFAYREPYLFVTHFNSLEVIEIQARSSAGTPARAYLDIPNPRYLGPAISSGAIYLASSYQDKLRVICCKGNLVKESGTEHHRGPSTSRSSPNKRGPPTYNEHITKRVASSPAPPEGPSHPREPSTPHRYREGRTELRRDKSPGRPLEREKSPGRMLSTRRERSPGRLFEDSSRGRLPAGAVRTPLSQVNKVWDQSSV

Tests used:
[1] = biological target: T1, Citron Rho-interacting kinase (Homo sapiens, UniProt O14578); settings: Sf9, dose 1.0 mM, time 20.0 min
[2] = biological target: T1, Citron Rho-interacting kinase; settings: dose 1.0 mM, time 20.0 min
[3] = biological target: T1, Citron Rho-interacting kinase; settings: Sf9, dose 10.0 µM, time 20.0 min
[4] = biological target: T1, Citron Rho-interacting kinase; settings: dose 100.0 µM, time 20.0 min

ΔTm [1] [°C] | ΔTm [2] [°C] | ΔTm [3] [°C] | ΔTm [4] [°C] | SMILES
0.8 | 1 |  |  | Cc1ccc2c(c1)C(=O)[C@]1(O)CCN(c3ccc(N)cc3)C1=N2
 |  | -0.3 | -0.2 | Cc1cc2c(-c3ccc(NC(=O)[C@H](N)CC(C)(C)C)cc3C)cncc2[nH]1
 |  | 2.1 | 2.1 | Cc1cc2c(-c3ccc(NC(=O)[C@H](N)CC(C)(C)C)cc3C)ccnc2[nH]1
